Measured affinities in a library of Ab-14 heavy chain variants

Values reported by Engelhart et al. 2022, doi:10.1038/s41597-022-01779-4 (FLAb copy).

Target: peptide PDVDLGDISGINAS, taken from heptad repeat 2 (HR2) of SARS-CoV-2 spike.

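The parent was found by panning a naive human phage display library on the peptide. AAYL49 was designed without a model: most single CDR substitutions and a random sample of double and triple ones. The assay is AlphaSeq: two haploid yeast populations carry antibody and antigen on their surface. Mating (16 h, 30 °C) was followed by selection of diploids and sequencing of their barcodes. Each replicate has its own calibration line, from reference interactions of the BCL2 family. Each pool was mated in three replicate cultures.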

Ab-14 is the parent antibody, in scFv form: VH, then the linker GGGGSGGGGSGGGGS, then VL. The light chain is unchanged in all variants.
VH: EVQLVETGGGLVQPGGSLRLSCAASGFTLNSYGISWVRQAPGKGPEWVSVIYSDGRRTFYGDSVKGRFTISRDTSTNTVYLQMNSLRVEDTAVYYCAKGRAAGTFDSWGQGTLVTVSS
VL: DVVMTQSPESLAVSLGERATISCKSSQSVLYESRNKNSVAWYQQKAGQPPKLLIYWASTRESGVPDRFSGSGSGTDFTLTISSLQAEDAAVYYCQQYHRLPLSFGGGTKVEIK

Substitutions are numbered in sequence along the VH above, starting at 1 (not Kabat).
Scale: log10 of Kd in nM, estimated from mating counts; low values are strong binders.
A mean of the replicates is given; it leaves out those without a signal.
"not detected" means that the variant was in the library but no mating with the target was seen in any replicate; the authors take this as a sign of poor binding, and no number exists.
For reference, the parent read 0.65 as the reference entry and 4.11 (one replicate of three) as a member of this library.
Background: pairings of library AAYL49 with three empty control strains gave a value in 15% of cases (median 4.06, 5th percentile 2.83). Values in that range, when seen in few replicates, are hard to tell from nonspecific mating. For each scFv, signals with the empty controls are counted beside the result.

changes,mean log10 Kd (nM),seen in,signal with controls
Y52L+G55W+T58G,not detected,0 of 3,0 of 9
F27K+N30P+G61R,not detected,0 of 3,0 of 9
R57P+S63W+V64Y,6.10,2 of 3,8 of 9
V50T+Y52T+T104M,4.50,1 of 3,3 of 9
G33H+R57Q+A101H,not detected,0 of 3,0 of 9
K65H+F105K+S107Y,not detected,0 of 3,1 of 9
F27R+N30I+S107H,not detected,0 of 3,3 of 9
Y32K+I34F+G99T,4.75,3 of 3,4 of 9
G26L+D54S+G103Y,not detected,0 of 3,0 of 9
G26P+G33R+Y60K,3.49,1 of 3,0 of 9
Y52V+K65Q+G103V,not detected,0 of 3,0 of 9
G26L+L29A+I51C,not detected,0 of 3,2 of 9
S31K+K65Y+S107K,2.19,3 of 3,0 of 9
G26D+G33P+K65H,not detected,0 of 3,1 of 9
S35R+S63D+F105G,3.42,1 of 3,4 of 9
G26V+R57V+G103P,not detected,0 of 3,0 of 9
G99I+A101R+S107R,not detected,0 of 3,0 of 9
G26N+R57W+T104L,not detected,0 of 3,0 of 9
G33A+S63C+G99Y,not detected,0 of 3,0 of 9
G26Y+V64M+T104I,not detected,0 of 3,0 of 9
G33Y+Y52I+K65A,not detected,0 of 3,1 of 9
N30M+R56K+S63L,1.89,3 of 3,0 of 9
V50Y+S53N,not detected,0 of 3,1 of 9
G33A+V64S+A102H,not detected,0 of 3,0 of 9
N30I+V50G+D54P,4.34,1 of 3,0 of 9
S35Y+D54I+R57V,not detected,0 of 3,0 of 9
N30W+G103M+T104N,4.56,2 of 3,4 of 9
Y32N+V64T+D106E,not detected,0 of 3,2 of 9
G55D+S63C+V64L,not detected,0 of 3,0 of 9
L29G+V64Y+S107Q,2.70,3 of 3,3 of 9
T28H+G61V+S107F,1.16,3 of 3,1 of 9
I51F+T58F+R100G,4.78,3 of 3,7 of 9
T58A+F59H+K65M,0.77,3 of 3,3 of 9
I51F+K65S+T104G,not detected,0 of 3,0 of 9
Y52N+D54Q+D106F,not detected,0 of 3,0 of 9
Y52P+A101D+D106I,not detected,0 of 3,4 of 9
L29D+G33W+Y60M,4.33,2 of 3,2 of 9
Y32E+R57V+S107R,not detected,0 of 3,0 of 9
D54S+R56G,not detected,0 of 3,0 of 9
G26R+R56P,not detected,0 of 3,3 of 9
L29K+N30A+Y60I,not detected,0 of 3,2 of 9
R56E+T104L,0.66,3 of 3,1 of 9
G26N+I51D+R56V,4.51,1 of 3,1 of 9
G26T+R57M+R100C,not detected,0 of 3,0 of 9
G26P+F27I+A102T,not detected,0 of 3,0 of 9
L29P+Y52A+T58G,5.52,2 of 3,4 of 9
N30W+V50F+Y60R,3.34,1 of 3,0 of 9
R100F+A101G+S107G,2.37,3 of 3,5 of 9
T28N+I34L,1.57,3 of 3,3 of 9
S31A+T58W+S107Q,3.63,1 of 3,2 of 9
G26V+T28K+D106S,4.85,1 of 3,0 of 9
S53I+T104G,not detected,0 of 3,0 of 9
S53R+R56F+V64H,4.44,1 of 3,2 of 9
G55H+F59H+V64M,4.21,1 of 3,0 of 9
T28M+A101S+S107W,not detected,0 of 3,0 of 9
I34R+V50F+D106Y,not detected,0 of 3,1 of 9
F27M+Y52Q+R56T,4.03,1 of 3,1 of 9
G26S+R100C+T104C,4.85,2 of 3,4 of 9
N30V+V50K+S63L,5.63,3 of 3,7 of 9
I34S+G61I+F105W,not detected,0 of 3,0 of 9
R57D+G61S+G103K,4.44,1 of 3,2 of 9
G61W+K65E+G99T,3.72,1 of 3,0 of 9
G33F+I34L,4.09,1 of 3,1 of 9
I34Q+S35Y+T104L,3.62,1 of 3,2 of 9
R57F+F59N+K65Y,not detected,0 of 3,0 of 9
T28Y+V50E+S107H,3.50,1 of 3,2 of 9
G33D+I51G,not detected,0 of 3,0 of 9
I51L+G99T+A102W,5.14,1 of 3,1 of 9
I51D+T58L+S107F,2.73,3 of 3,1 of 9
F27D+Y32D+Y52E,4.76,1 of 3,3 of 9
T28G+G33C+F59C,1.33,3 of 3,0 of 9
T28E+N30I+S63Y,3.35,3 of 3,0 of 9
F59E+Y60W,4.54,2 of 3,5 of 9

From the list, the first 5 with no signal in any replicate:

changes	mean log10 Kd (nM)	seen in	signal with controls
Y52L+G55W+T58G	not detected	0 of 3	0 of 9
F27K+N30P+G61R	not detected	0 of 3	0 of 9
G33H+R57Q+A101H	not detected	0 of 3	0 of 9
K65H+F105K+S107Y	not detected	0 of 3	1 of 9
F27R+N30I+S107H	not detected	0 of 3	3 of 9